{"source": "patent US20210087533A1", "about": "“CANINE EPITHELIAL ORGANOIDS AND METHODS OF MAKING, RECOVERING, AND USE” (Iowa State University Research Foundation, Inc., priority 2019, published 2021)", "key": {"TCC organoids": {"tested_on": "TCC organoids", "experiment": "MTT cell viability (cytotoxicity) assay, TCC organoids", "type": "cell-based, canine", "details": "0.01 or 0.1 ug/ml MMC, 48 hours"}, "[1]": {"tested_on": "healthy colon or ileum organoids", "details": "0.01 or 0.1 ug/ml MMC, 48 hours"}}}
{"compound": "CO[C@@]12[C@H](COC(N)=O)C3=C(C(=O)C(C)=C(N)C3=O)N1C[C@@H]1N[C@@H]12", "note": "[Mitomycin C]", "values": [{"measurement": "cytotoxicity (MTT)", "setting": "TCC organoids", "result": "not cytotoxic"}, {"measurement": "cytotoxicity (MTT)", "setting": "[1]", "result": "not cytotoxic"}]}
